# Measured values as given in US20240011030A1, “TREATMENTS FOR RETINAL DEGENERATIVE DISEASES” (Novartis AG, priority 2020, published 2024).
# B1: IFNβ: interferon-beta purchased from R&D Systems (protein)
# chain: MSYNLLGFLQRSSNFQCQKLLWQLNGRLEYCLKDRMNFDIPEEIKQLQQFQKEDAALTIYEMLQNIFAIFRQDSSSTGWNETIVENLLANVYHQINHLKTVLEEKLEKEDFTRGKLMSSLHLKRYYGRILHYLKAKEYSHCAWTIVRVEILRNFYFINRLTGYLRN
# Columns and labels:
# [1] = tested on: RPE cells; experiment: ISG15 induction by IFN stimulation (ELISA); type: cell-based, human; settings: THP1, ARPE-19 or iPS-RPE cells, IFNs up to 100 μg/ml, 24 hours, FIGS. 2D to 2F
# Procedure: To test whether IFNs can induce an IFN response and, if so, which IFNs can induce an IFN response, cells were treated with different IFNs (IFNα1, IFNβ, IFNγ, or IFNλ1/2/3), and ISG15 induction was measured. Cells were treated with different IFN types at 100 ng/ml each (FIG. 2D) or 0 ng/ml IFN, 0.1 ng/ml IFN, 1 ng/ml IFN, 10 ng/ml IFN, or 100 ng/ml IFN (FIGS. 2E and 2F). ISG15 expression in was detected by ELISA 24 hours after treatment as described above, using antibody pairs for ISG15 (R&D #AF4845, #A-830). Upon treatment with different IFN types, the RPE cell lines and THP-1 cells responded to type I IFN stimulation with downstream ISG15 activation (FIG. 2D-2E).
# For ELISA, assays were run using Meso Scale Discovery plates (Meso Scale Diagnostics, Rockville, MD). Lysates were extracted using cell lysis buffer (CST #9803), and supplemented with protease and phosphatase inhibitors. Lysates or conditioned media were measured in 384-well plates using antibody pairs for ISG15 (R&D #AF4845, #A-830), IFNβ (R&D #DY814), IFNα1 (abcam #ab215408), IFNγ (R&D #DY285B), IFNλ1/3 (R&D #DY1598B), and cGAS (Cayman #23853, CST #66546). Protein levels were measured according to manufacturer instructions, and detected on a Meso Sector S 600 imager.
# [2] = tested on: iPS-RPE cells; experiment: Transepithelial resistance (TER) of RPE barrier function; type: cell-based, human; settings: FIGS. 7A and 7D
# Procedure: (§1) In order to evaluate the effects of IFNs on RPE barrier function, transepithelial resistance (TER) was measured in 3D cultures of iPS-RPE cells. Briefly, barrier function of RPE cells was assessed by monitoring TER every 15 minutes by means of a cellZscope 2 (NanoAnalytics GmbH, Münster, Germany). The resistance values for individual monolayers at specific times (Ω cm^2) were determined, subtracted for background resistance produced by the blank filter and culture medium (as 0%), and normalized to baseline resistance prior to stimulation (as 100%).
# as §1, with “Barrier” for “In order to evaluate the effects of IFNs on RPE barrier function, transepithelial resistance (TER) was measured in 3D cultures of iPS-RPE cells. Briefly, barrier”, “Munster,” for “Münster,”
molecule,measurement,setting,value
B1,ISG15 induction in response to IFN stimulation,[1],primarily responded
same,Barrier function (TER) on treatment,[2],impaired
